In ChEMBL document CHEMBL3817737, “Structure-Based Identification of Novel Ligands Targeting Multiple Sites within a Chemokine-G-Protein-Coupled-Receptor Interface” (J Med Chem, 2016) one finds Activity data, which are given here for one molecule.

Chains of the proteins cited; added tags and fusions are not shown.
UniProt P48061, whole entry: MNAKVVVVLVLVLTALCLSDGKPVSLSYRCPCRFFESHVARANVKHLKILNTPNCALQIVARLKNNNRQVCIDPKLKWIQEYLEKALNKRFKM

Activity calls are given as the source filed them. The calls are words filed in the database; no cut-off is given here.

For test [1], the target named is T1, Stromal cell-derived factor 1 (Homo sapiens, UniProt P48061). The test is described as follows: Binding affinity to His6-SUMO fusion tagged wild type human [U-15N]CXCL12 expressed in Escherichia coli assessed as induction of chemical shift perturbations to residues at I4/I6 binding site by 2D 1H-15N HMQC NMR spectroscopy.
Test [2] addresses T1, Stromal cell-derived factor 1. The test is described as follows: Binding affinity to human [U-15N]CXCL12 L36C/A65C dimer mutant expressed in Escherichia coli assessed as induction of chemical shift perturbations at W57 residues by 2D 1H-15N SOFAST HMQC NMR spectroscopy.

In the case of `CC(C)O.CCCOc1ccc(C(Nc2ccc(F)cc2)P(=O)(O)O)cc1` (configuration not stated), in test [1], the Activity amounted to 12.5%. The outcome in test [2] was inactive.
